Measurements published in article PMC3945162 (Psychopharmacology, 2013).

Protein sequences, listed by entry. Tags and fused reporters are not part of them. Residues count along the entry.
UniProt P28335, 33-458: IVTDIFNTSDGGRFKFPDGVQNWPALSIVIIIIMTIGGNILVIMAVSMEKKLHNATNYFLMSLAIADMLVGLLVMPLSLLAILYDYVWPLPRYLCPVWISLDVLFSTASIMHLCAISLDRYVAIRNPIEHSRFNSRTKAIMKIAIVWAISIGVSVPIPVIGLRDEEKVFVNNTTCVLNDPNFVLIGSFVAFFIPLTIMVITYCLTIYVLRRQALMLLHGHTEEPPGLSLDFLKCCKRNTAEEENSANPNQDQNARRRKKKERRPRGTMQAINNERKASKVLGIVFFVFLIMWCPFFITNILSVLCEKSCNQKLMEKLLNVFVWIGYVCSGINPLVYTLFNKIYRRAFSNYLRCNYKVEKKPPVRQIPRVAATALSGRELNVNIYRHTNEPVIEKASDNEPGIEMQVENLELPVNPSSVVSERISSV

How the values were obtained:
[1] = molecular target: T1, human 5-HT2C receptor (Homo sapiens, UniProt P28335); test: biochemical
[2] = molecular target: T1, human 5-HT2C receptor; test: cell-based

Which results are given for `CNC(C)Cc1ccc2c(c1)OCO2` (centres unmarked) [MDMA, 3,4-methylenedioxymethamphetamine, reference compound]?
Ki [1]: 9.6 ± 2.4 µM; EC50 [2]: 9.1 ± 1.5 µM
